{"sequences": {"note": "Amino acid sequences for entries named in this document (tags omitted). A change or cut given only in a name is not applied to a line headed by its entry.", "UniProt Q9Y5N1": "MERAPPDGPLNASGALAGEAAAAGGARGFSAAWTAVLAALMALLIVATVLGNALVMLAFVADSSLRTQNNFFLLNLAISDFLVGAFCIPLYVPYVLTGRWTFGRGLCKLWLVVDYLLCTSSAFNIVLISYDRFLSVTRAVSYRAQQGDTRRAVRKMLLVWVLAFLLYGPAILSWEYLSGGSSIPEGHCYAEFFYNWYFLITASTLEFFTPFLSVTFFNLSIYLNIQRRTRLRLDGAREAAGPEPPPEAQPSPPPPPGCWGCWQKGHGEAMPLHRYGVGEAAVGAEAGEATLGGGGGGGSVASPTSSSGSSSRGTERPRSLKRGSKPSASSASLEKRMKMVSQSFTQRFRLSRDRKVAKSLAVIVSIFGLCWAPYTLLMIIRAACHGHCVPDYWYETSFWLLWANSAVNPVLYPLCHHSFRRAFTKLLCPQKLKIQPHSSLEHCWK"}, "source": "ChEMBL document CHEMBL1151918", "about": "“Clobenpropit analogs as dual activity ligands for the histamine H3 and H4 receptors: synthesis, pharmacological evaluation, and cross-target QSAR studies” (Bioorg Med Chem, 2009)", "target": "Histamine H3 receptor (Homo sapiens, UniProt Q9Y5N1)", "test": "Displacement of [3H]N-alpha-methylhistamine from human histamine H3 receptor expressed in human SK-N-MC cells by liquid scintillation counting", "assay_type": "cell-based", "data": [{"smiles": "NC(=NCc1ccc(Cl)cc1)SCCCc1cnc[nH]1", "note": "[CLOBENPROPIT]", "values": [{"measurement": "Ki", "result": 3.16, "unit": "nM"}]}]}
